Ab-91 heavy chain CDR variants: yeast mating affinities

Values reported by Engelhart et al. 2022, doi:10.1038/s41597-022-01779-4 (FLAb copy).

Target: peptide PDVDLGDISGINAS, taken from heptad repeat 2 (HR2) of SARS-CoV-2 spike.

Parent: Ab-91, a human scFv built as VL, a (GGGGS)3 linker, VH. Only the CDRs of the heavy chain vary.
VL: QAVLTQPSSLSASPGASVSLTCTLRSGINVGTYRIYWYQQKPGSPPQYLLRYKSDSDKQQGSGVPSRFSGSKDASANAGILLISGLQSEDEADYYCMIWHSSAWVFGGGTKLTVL
VH: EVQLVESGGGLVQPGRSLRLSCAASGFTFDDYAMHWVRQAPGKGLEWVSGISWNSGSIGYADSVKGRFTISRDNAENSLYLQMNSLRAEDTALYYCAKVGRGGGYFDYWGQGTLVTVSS

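The starting antibody came from a phage panning campaign against this peptide. Library AAYL51 holds single substitutions and randomly drawn double and triple substitutions in the CDRs. The assay is AlphaSeq: two haploid yeast populations carry antibody and antigen on their surface. The frequency of each diploid, read from paired DNA barcodes, reflects how well the two displayed proteins bind. A regression on co-assayed BCL2-family reference pairs converts the normalised counts of each replicate to an apparent Kd. Mating was done three times.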

Positions count from residue 1 of the parent VH; S52E puts E in place of S.
Scale: log10 of Kd in nM, estimated from mating counts; low values are strong binders.
A mean of the replicates is given; it leaves out those without a signal.
"nd" marks a missing value. The strain was present, yet no cells mated with the target were sequenced in that replicate, which points to weak or no binding.
Three control strains display no target. For library AAYL51, 21% of the pairings with them gave a signal, with a median of 4.54 and one signal in twenty below 3.26, so weak values seen in few replicates may be background. The control count says in how many pairings with the empty strains this scFv gave a signal, with their mean in brackets.
Parent in this assay: reference entry 1.86, copy in this library 0.88.

| # | changes | log10 Kd, replicates | log10 Kd (nM), mean | control signals |
|---|---|---|---|---|
| 1 | S52E+A61F+V64W | 3.80 / 3.67 / nd | 3.73 | 0 of 9 |
| 2 | T28A+D31M+V99I | 0.03 / 0.02 / -0.50 | -0.15 | 1 of 9 (4.81) |
| 3 | V99P+G104W | nd / nd / nd | nd | 2 of 9 (4.38) |
| 4 | R101V+Y108N | 1.83 / 1.85 / 0.89 | 1.52 | 1 of 9 (3.63) |
| 5 | H35S+K65R+F106N | 4.43 / nd / 5.55 | 4.99 | 5 of 9 (5.17) |
| 6 | G26Q+Y105N+Y108R | 5.01 / nd / nd | 5.01 | 3 of 9 (4.58) |
| 7 | D31V+Y32S+Y105N | nd / nd / nd | nd | 1 of 9 (2.75) |
| 8 | M34T+Y60V+Y108A | 4.62 / 6.35 / 5.43 | 5.47 | 9 of 9 (4.76) |
| 9 | F29D+I58N+Y60W | nd / nd / nd | nd | 1 of 9 (4.83) |
| 10 | T28Q+F29S+I58W | nd / 4.26 / nd | 4.26 | 1 of 9 (4.91) |
| 11 | G26S+S55K+G100S | nd / nd / 5.04 | 5.04 | 3 of 9 (4.43) |
| 12 | A33L+S57K+V99T | nd / nd / nd | nd | 0 of 9 |
| 13 | S57F+I58D+V99L | 4.34 / 4.81 / 4.65 | 4.60 | 2 of 9 (4.40) |
| 14 | D31N+A33Y+H35I | nd / nd / nd | nd | 3 of 9 (4.72) |
| 15 | D30A+G103F+Y108F | nd / nd / nd | nd | 0 of 9 |
| 16 | I58P+K65W+G102T | nd / nd / nd | nd | 1 of 9 (2.49) |
| 17 | T28G+D31F+Y105E | nd / nd / nd | nd | 0 of 9 |
| 18 | H35E+G50D+G56E | nd / nd / nd | nd | 0 of 9 |
| 19 | S55G+V99F | nd / nd / nd | nd | 0 of 9 |
| 20 | S55A+G56T | 2.50 / 2.45 / 2.57 | 2.51 | 2 of 9 (3.69) |
| 21 | S63T+Y105H+F106I | 4.87 / nd / 4.22 | 4.54 | 3 of 9 (4.07) |
| 22 | F29L+I58D+Y60I | nd / nd / nd | nd | 0 of 9 |
| 23 | G59S+G100L+G104I | 3.28 / 3.48 / 4.78 | 3.85 | 4 of 9 (3.87) |
| 24 | A33Y+I51Y+V64M | nd / nd / 5.29 | 5.29 | 2 of 9 (5.01) |
| 25 | T28M+G104C+F106K | nd / nd / nd | nd | 1 of 9 (4.72) |
| 26 | Y32D+D62N+V99M | 5.03 / 6.54 / nd | 5.78 | 4 of 9 (4.82) |
| 27 | G50M+S63M+R101M | nd / nd / nd | nd | 1 of 9 (2.80) |
| 28 | G26N+D107M+Y108L | 5.29 / nd / 3.98 | 4.63 | 3 of 9 (4.71) |
| 29 | F27L+H35C+V99I | 4.18 / nd / nd | 4.18 | 3 of 9 (4.45) |
| 30 | F27C+S52G+G102Q | 5.66 / 5.06 / nd | 5.36 | 1 of 9 (3.41) |
| 31 | W53Q+D62G+G103V | 2.44 / 2.71 / 3.99 | 3.05 | 0 of 9 |
| 32 | A33F+S57H+F106Y | nd / 4.66 / nd | 4.66 | 0 of 9 |

Repeated from above, the 2 best binders with a signal in all replicates:

changes,"log10 Kd, replicates","log10 Kd (nM), mean",control signals
T28A+D31M+V99I,0.03 / 0.02 / -0.50,-0.15,1 of 9 (4.81)
R101V+Y108N,1.83 / 1.85 / 0.89,1.52,1 of 9 (3.63)